The structures appear in SMILES notation. pIC50: −log10 of the molar value.

The chains behind the UniProt entries cited, without tags or fusion partners. Residues count along the entry.
UniProt P07333, 20-972 limits assumed: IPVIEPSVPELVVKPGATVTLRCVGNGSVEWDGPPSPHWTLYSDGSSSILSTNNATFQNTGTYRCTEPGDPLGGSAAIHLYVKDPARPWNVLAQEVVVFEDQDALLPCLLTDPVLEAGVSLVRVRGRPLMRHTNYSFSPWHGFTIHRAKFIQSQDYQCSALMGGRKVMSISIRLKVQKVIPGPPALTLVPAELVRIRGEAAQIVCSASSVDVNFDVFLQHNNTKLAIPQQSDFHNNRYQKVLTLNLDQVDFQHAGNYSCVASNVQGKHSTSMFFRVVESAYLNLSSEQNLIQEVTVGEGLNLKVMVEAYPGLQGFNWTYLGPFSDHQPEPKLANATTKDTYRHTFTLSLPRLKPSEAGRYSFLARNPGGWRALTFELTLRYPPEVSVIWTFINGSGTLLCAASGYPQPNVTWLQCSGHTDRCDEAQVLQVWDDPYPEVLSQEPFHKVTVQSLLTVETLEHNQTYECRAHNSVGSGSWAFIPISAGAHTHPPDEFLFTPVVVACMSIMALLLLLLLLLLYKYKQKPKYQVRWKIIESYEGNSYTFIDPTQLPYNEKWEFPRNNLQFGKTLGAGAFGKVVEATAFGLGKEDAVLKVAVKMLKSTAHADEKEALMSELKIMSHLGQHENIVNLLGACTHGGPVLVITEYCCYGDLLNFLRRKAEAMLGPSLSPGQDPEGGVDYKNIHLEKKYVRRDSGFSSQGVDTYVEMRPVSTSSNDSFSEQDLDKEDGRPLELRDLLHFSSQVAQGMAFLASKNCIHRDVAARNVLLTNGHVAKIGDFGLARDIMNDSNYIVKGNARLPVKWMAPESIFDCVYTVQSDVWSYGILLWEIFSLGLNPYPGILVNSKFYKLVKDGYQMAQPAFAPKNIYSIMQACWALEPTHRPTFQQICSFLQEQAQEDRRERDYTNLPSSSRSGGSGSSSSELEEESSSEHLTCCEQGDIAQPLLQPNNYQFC

For two compounds, IC50 results are on record in patent US7642270B2, “5-oxo-5,8-dihydro-pyrido-pyrimidine as inhibitors of c-fms kinase” (Janssen Pharmaceutica N.V., priority 2005, dated 2010).

The target in the experiment is c-fms (Homo sapiens, UniProt P07333). Kind of experiment: c-fms autophosphorylation, fluorescence polarization competition immunoassay. Particulars: read-out: c-fms Autophosphorylation IC50; 10 nM c-fms, 1 mM ATP, 5 mM MgCl2, 45 min room temperature; averages of three independent measurements. Type of experiment: biochemical. Background: Polarisation of emitted light reports the rotation of a fluorescent probe.

What is called pIC50 is −log10 of the IC50, conventionally taken in molar units. As to `NC(=O)c1cn(-c2ccc3c(c2)CCC3)c2nc(Nc3cccc(CO)c3)ncc2c1=O`, the negative-log IC50 (pIC50) was 5.85. With `NC(=O)c1cn(-c2ccc3c(c2)CCC3)c2nc(Nc3ccc(-n4cccn4)cc3)ncc2c1=O`, the pIC50 was less than 5.00.
